Reference: patent US7662832B2, “Pyrrolo[2,3-c]pyridine derivatives and processes for the preparation thereof” (priority 2004, dated 2010)

The chains behind the UniProt entries cited, without tags or fusion partners.
UniProt P19156, whole entry, looked up: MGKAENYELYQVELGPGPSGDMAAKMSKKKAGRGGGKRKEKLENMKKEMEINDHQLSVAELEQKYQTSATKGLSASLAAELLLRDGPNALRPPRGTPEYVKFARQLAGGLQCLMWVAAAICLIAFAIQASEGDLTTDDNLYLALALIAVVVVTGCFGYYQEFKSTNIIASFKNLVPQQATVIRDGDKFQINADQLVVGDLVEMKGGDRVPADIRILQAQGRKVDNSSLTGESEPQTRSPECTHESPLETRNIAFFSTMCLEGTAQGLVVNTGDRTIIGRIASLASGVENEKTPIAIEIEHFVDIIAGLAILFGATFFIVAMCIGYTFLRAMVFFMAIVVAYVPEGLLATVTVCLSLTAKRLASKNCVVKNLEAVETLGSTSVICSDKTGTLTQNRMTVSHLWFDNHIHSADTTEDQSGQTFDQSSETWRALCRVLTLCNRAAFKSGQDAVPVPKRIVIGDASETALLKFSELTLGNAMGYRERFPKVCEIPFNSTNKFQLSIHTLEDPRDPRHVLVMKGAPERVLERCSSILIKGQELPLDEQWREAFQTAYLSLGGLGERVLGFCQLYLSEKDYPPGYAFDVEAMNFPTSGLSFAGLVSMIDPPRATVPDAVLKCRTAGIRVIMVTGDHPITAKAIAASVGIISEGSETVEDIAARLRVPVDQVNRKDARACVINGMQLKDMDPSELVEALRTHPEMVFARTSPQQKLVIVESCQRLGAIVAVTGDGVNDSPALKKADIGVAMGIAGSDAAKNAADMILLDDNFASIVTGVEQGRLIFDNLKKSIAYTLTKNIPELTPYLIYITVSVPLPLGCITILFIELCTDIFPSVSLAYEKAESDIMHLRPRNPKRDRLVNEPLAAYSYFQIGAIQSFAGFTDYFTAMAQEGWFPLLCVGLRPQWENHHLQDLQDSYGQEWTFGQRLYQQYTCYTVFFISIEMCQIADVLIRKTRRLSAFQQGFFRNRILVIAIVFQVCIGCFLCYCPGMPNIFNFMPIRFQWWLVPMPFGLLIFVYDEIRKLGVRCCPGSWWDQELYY

Biological target: Proton Pump (H^+/K^+-ATPase) (Sus scrofa, UniProt P19156)
Test: Inhibitory effects on proton pump (H^+/K^+-ATPase) activity
Assay type: biochemical
Conditions: hog gastric vesicles; K^+ stimulated H^+/K^+-ATPase activity; 30 minutes at 37° C.

## Cc1c(C)n(CCC(C)Cl)c2c(N(C)Cc3ccc(F)cc3)nccc12 (stereo not shown)
  IC50: 110 nM
